US20060241289A1
Values joined by “and” are separate entries in the source; they are usually repeats but may differ in a detail not shown here. Equal entries are not always repeated.

Experiments:
[1] = target: hTSH receptor expressed on CHO cells (human) (UniProt P16473); assay: cell-based or functional assay
[2] = target: human TSH receptor on CHO cells (human) (UniProt P16473); assay: cell-based or functional assay

A cyclic AMP (pmols per well); Experiment 1, Porcine TSH 0.1 ng/mL (pmols per well) [1] of 1.07, a cyclic AMP (pmols per well); Experiment 2, Porcine TSH 0.05 ng/mL (pmols per well) [1] of 1.07 and a stimulation of cyclic AMP production in CHO cells transfected with the TSH receptor [1] of 0.1 ng/mL were found for “porcine TSH (from UniProt P01219 25-120; P01224 21-132) (ligand)” in this work. The mean pmol cyclic AMP/cell well; pTSH 0.5 ng/mL plus assay buffer (pmol/cell well) [2] was 3.91, the pmol cyclic AMP/cell well; pTSH 0.5 ng/mL plus assay buffer (pmol/cell well) [2] was 4.02 and 2.75 and 4.96 and the x basal stimulation; pTSH 0.5 ng/mL plus assay buffer [2] was 11.5 x basal. For the same substance, the x basal stimulation; pTSH 0.5 ng/mL plus assay buffer (separate experiment) [2] was 12.7 x basal.
